# Only a part is listed here, and it is no random draw. Measured potencies and affinities stand elsewhere. Active and inactive are the calls of the source. How the calls were made is not given here.
# Chains of the proteins cited; added tags and fusions are not shown.
# UniProt P05187, whole entry: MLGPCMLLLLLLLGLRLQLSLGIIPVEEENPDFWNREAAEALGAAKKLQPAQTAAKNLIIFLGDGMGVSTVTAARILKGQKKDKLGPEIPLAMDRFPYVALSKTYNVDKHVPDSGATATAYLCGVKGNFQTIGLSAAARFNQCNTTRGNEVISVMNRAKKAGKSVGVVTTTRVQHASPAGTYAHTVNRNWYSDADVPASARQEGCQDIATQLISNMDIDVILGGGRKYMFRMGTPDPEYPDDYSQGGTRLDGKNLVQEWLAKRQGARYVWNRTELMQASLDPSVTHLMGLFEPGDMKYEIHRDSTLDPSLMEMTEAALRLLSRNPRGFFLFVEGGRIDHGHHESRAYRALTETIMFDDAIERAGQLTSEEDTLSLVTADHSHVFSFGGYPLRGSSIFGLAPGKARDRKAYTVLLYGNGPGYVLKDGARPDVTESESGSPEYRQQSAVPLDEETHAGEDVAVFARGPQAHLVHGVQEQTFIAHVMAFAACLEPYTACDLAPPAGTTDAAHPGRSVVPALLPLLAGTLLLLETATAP
# Molecular target: Alkaline phosphatase, placental type (Homo sapiens) (UniProt P05187)
# Assay: inhibition of human placental alkaline phosphatase – biochemical, luminescence, HTS (AID 690)
# Settings: purified PLAP, luminescent substrate; at 20 µM; stronger effect = higher value
row,Structure (SMILES),inhibition
1,Fc1ccccc1NC1CCN(Cc2ccccc2)CC1,inactive: -63.6%
2,CCC(CO)(C(=O)OC1CN2CCC1CC2)c1ccccc1 (stereo not given),inactive: -12.6%
3,CCOc1ncccc1C(=O)NCC1(N2CCOCC2)CCCCC1,inactive: -44.8%
4,N/C(=N\O)c1c(N)no[n+]1[O-],inactive: 9.6%
5,c1ccc(CN2CCC(Nc3ccccc3)CC2)cc1,inactive: -67.6%
6,O=C(NCC1(N2CCOCC2)CCCCC1)c1cc(=O)[nH]c2ccccc12,inactive: -35.8%
7,N#CC1(Nc2ccccc2)CCN(CCc2ccccc2)CC1,inactive: -17.5%
8,O=C(NCC1(N2CCOCC2)CCCCC1)c1cc2ccccc2o1,inactive: 0.7%
9,O=C(OC1CN2CCC1CC2)C1c2ccccc2Oc2ccccc21 (stereo not given),inactive: -31.5%
10,COc1ccc(NC2CCN(CCc3ccccc3)CC2)c(OC)c1,inactive: -57.6%
